Results published in patent US9717715B2, “Method of combination therapy using an anti-C-Met antibody” (Samsung Electronics Co., Ltd., priority 2013, dated 2017).

Target: T1, human c-Met protein (Homo sapiens, UniProt P08581)
T1 sequence (P08581 25-1390): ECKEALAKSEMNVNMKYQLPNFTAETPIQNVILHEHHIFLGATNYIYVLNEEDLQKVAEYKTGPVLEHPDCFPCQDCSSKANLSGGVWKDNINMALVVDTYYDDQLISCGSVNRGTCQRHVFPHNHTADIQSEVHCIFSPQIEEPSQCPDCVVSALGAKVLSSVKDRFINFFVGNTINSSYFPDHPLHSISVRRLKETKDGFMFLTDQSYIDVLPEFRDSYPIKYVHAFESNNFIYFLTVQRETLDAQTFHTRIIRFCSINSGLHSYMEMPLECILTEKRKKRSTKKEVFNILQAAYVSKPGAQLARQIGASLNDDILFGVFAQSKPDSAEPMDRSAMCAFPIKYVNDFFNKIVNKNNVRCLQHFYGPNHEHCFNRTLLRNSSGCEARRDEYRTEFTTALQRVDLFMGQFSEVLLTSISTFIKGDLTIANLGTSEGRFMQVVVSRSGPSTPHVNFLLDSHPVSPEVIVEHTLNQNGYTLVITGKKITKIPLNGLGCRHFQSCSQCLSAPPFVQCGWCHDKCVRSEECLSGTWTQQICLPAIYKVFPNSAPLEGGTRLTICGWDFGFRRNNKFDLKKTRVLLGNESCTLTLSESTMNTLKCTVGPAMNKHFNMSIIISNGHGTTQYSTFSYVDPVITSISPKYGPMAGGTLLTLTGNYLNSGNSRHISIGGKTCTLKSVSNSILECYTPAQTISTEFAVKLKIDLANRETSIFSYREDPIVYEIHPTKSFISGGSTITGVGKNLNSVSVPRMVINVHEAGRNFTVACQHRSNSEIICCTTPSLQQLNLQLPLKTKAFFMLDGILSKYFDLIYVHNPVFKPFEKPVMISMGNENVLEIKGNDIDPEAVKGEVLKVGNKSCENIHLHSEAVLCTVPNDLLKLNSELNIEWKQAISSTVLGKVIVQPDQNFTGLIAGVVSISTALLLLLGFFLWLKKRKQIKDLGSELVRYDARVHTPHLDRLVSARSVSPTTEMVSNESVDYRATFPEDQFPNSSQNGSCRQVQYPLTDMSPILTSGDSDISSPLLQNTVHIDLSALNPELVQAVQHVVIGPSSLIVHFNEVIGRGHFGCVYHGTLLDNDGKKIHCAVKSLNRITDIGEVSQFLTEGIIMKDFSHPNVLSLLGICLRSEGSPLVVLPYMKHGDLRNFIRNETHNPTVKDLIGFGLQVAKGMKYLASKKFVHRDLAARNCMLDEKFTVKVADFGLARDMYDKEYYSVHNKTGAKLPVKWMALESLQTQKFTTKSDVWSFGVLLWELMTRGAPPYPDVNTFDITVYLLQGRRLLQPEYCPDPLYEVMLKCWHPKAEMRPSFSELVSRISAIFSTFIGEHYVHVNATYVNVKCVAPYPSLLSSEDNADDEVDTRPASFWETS
Assay: Biacore binding affinity to c-Met antigen
Details: antibody immobilized on CM5 chip, human c-Met 0.39 nM to 100 nM
Description: Affinities of the 4 types of antibodies against c-Met antigen prepared in Example 7 were measured by using a Biacore (GE healthcare). About 80 to 110 RU of each antibody was immobilized on a CM5 chip, 9 different concentrations ranging from 0.39 nM to 100 nM of human c-Met protein, as an antigen, were injected at a rate of 30 ul/min to obtain kon values and koff values as shown in Table 3. Then, KD values were calculated based thereon.

B1: huAbF46: humanized anti-c-Met antibody from chAbF46; combination of the H4-heavy chain and the H4-light chain (antibody)
heavy: EVQLVESGGGLVQPGGSLRLSCAASGFTFTDYYMSWVRQAPGKGLEWLGFIRNKANGYTTEYSASVKGRFTISRDNSKNTLYLQMNSLRAEDTAVYYCARDNWFAYWGQGTLVTVSSASTKGPSVFPLAPSSKSTSGGTAALGCLVKDYFPEPVTVSWNSGALTSGVHTFPAVLQSSGLYSLSSVVTVPSSSLGTQTYICNVNHKPSNTKVDKKV[left out - human IgG1 Fc]
light: DIQMTQSPSSLSASVGDRVTITCKSSQSLLASGNQNNYLAWHQQKPGKAPKMLIIWASTRVSGVPSRFSGSGSGTDFTLTISSLQPEDFATYYCQQSYSAPLTFGQGTKVEIKRTVAAPSVFIFPPSDEQLKSGTASVVCLLNNFYPREAKVQWKVDNALQSGNSQESVTEQDSKDSTYSLSSTLTLSKADYEKHKVYACEVTHQGLSSPVTKSFNRGE
koff: 0.000723 s⁻¹ | kon: 329000 M⁻¹ s⁻¹
